Values quoted from earlier work as cited in paper PMC5641599 (Molecular Metabolism, 2017).

Sequences of proteins named here, by UniProt entry; tags and fusion partners are left off.
UniProt P32245, whole entry F280L: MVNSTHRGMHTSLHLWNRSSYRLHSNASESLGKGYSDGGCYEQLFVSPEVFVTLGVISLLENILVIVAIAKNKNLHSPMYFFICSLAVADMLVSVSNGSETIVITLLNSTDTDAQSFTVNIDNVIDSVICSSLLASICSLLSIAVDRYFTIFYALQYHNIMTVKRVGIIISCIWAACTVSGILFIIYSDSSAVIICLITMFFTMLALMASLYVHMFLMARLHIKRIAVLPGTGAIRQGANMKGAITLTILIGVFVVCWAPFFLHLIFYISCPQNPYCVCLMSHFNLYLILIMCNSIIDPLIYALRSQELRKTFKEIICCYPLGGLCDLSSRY
UniProt P32245, whole entry M79I: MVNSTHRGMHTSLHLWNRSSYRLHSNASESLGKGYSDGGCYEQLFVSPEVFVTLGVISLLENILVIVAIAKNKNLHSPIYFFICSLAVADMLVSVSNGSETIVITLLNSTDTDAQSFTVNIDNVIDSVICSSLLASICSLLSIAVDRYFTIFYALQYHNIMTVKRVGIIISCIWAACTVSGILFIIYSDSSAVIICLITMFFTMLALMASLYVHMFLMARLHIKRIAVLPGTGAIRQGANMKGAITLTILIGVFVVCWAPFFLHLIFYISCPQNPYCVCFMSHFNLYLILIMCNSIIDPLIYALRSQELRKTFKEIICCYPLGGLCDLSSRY
UniProt P32245, whole entry R18H: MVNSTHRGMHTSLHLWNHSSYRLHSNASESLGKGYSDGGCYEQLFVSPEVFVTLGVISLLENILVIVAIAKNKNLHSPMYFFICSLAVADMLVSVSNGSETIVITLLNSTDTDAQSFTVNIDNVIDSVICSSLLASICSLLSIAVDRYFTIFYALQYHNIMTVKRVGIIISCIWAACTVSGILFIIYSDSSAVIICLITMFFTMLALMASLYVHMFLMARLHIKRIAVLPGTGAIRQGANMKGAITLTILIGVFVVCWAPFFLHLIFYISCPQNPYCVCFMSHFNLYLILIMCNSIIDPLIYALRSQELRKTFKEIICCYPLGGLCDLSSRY
UniProt P32245, whole entry I317T: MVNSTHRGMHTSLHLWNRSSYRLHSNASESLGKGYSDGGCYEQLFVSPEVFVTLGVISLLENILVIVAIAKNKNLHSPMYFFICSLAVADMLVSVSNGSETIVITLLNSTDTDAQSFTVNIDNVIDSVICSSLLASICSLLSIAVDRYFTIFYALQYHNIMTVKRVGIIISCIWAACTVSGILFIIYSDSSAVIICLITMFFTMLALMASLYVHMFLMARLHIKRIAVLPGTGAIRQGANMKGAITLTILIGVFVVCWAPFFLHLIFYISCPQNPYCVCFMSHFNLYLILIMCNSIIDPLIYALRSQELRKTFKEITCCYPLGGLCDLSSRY
UniProt P32245, whole entry V103I: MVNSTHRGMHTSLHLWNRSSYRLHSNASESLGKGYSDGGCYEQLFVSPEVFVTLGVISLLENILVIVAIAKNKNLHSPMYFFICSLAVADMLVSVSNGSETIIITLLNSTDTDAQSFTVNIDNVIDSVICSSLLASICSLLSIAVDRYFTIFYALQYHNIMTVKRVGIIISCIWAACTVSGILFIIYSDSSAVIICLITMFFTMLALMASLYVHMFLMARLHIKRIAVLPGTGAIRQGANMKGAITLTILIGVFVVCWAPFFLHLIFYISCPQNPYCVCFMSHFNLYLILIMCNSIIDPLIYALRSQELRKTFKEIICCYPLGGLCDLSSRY
UniProt P32245, whole entry I316S: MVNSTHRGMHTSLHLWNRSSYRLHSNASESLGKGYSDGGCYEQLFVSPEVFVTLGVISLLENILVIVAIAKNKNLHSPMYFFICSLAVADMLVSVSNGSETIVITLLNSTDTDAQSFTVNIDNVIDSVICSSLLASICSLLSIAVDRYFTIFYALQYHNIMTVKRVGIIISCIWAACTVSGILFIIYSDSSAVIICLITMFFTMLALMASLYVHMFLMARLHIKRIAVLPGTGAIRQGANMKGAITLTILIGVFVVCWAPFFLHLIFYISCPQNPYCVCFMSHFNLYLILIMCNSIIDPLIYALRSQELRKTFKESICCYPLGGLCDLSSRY
UniProt P32245, whole entry A175T: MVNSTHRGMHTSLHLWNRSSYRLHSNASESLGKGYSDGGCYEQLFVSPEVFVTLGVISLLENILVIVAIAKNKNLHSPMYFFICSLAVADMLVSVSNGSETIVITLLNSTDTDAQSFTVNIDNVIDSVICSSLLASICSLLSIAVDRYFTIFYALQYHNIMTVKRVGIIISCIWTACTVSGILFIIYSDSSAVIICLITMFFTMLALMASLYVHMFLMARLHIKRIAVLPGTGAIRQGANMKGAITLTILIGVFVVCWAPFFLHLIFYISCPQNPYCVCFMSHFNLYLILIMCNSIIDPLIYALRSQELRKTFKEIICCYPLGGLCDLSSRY
UniProt P32245, whole entry Y332H: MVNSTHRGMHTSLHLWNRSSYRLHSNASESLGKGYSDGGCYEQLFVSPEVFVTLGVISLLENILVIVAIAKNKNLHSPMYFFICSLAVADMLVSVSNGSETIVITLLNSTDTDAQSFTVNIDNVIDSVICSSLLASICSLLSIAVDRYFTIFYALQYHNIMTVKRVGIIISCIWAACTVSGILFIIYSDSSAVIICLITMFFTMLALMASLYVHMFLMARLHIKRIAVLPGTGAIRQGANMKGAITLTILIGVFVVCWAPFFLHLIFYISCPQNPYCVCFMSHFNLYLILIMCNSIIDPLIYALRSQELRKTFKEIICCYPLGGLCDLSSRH
UniProt P32245, whole entry A70T: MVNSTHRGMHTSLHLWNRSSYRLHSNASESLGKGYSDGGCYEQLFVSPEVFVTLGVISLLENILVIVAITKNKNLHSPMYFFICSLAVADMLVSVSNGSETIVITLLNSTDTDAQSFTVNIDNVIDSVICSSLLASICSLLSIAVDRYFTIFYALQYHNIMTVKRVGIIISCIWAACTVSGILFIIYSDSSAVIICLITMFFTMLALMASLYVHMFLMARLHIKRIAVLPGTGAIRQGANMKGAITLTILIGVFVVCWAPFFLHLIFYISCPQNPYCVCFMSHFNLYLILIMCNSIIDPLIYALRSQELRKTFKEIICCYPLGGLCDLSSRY
UniProt P32245, whole entry R236H: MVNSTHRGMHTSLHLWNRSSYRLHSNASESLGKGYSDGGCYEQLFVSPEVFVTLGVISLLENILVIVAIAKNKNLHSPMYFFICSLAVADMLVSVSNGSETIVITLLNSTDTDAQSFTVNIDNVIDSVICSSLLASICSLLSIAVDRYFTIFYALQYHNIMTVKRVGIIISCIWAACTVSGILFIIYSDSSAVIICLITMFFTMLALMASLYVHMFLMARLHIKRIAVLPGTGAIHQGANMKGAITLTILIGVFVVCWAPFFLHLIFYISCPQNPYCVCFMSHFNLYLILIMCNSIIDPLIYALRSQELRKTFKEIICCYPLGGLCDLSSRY
UniProt P32245, whole entry F51L: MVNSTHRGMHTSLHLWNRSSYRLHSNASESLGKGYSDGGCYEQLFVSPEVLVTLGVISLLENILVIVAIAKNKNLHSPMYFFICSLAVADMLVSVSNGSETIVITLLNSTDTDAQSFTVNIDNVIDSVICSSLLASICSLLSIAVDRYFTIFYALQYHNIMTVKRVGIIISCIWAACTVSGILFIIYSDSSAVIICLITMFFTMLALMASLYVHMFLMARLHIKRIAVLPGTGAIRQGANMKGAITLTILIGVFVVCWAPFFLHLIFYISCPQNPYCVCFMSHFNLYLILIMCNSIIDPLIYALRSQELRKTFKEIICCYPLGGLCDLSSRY
UniProt P32245, whole entry G252S: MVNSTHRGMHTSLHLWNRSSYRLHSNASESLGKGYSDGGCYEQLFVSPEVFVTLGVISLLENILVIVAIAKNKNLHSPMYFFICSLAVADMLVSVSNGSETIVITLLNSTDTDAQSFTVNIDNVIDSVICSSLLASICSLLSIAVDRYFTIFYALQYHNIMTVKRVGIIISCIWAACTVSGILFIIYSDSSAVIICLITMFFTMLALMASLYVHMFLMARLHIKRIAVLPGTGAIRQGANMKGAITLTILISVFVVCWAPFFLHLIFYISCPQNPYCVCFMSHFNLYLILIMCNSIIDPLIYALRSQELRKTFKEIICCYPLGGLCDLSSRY
UniProt P32245, whole entry A244E: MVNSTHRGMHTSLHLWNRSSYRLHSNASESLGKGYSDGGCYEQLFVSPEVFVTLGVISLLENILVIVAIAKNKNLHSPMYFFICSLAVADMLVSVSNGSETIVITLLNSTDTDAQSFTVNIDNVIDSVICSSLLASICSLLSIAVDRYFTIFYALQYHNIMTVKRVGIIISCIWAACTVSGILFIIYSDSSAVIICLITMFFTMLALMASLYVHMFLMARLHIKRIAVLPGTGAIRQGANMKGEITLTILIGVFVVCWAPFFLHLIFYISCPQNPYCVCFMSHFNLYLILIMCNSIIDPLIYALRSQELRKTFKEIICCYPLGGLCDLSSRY
UniProt P32245, whole entry R7C: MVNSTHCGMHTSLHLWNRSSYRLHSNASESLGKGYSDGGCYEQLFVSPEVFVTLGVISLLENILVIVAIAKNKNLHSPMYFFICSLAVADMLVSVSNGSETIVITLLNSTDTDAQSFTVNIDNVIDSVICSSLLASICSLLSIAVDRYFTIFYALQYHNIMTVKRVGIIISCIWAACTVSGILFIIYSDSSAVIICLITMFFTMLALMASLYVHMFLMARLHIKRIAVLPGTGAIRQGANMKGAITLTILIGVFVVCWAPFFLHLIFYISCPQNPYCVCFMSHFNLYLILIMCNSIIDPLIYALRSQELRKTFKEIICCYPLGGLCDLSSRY
UniProt P32245, whole entry N97D: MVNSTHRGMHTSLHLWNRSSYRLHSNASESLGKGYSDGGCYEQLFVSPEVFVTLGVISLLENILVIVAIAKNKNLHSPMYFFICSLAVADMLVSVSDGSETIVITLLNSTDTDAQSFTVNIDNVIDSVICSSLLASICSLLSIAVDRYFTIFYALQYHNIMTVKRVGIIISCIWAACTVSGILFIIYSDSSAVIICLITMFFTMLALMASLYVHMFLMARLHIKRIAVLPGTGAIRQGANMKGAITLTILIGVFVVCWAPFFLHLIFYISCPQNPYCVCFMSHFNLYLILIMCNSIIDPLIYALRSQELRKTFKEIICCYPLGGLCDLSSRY
UniProt P32245, whole entry A154D: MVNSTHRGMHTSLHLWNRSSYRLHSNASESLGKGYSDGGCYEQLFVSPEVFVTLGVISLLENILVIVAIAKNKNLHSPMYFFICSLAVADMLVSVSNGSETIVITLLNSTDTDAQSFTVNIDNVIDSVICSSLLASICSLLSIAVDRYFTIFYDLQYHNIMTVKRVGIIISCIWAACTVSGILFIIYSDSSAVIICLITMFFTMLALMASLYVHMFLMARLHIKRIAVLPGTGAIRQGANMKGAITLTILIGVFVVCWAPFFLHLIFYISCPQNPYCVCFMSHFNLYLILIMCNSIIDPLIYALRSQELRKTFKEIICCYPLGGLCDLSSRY
UniProt P32245, whole entry R165W: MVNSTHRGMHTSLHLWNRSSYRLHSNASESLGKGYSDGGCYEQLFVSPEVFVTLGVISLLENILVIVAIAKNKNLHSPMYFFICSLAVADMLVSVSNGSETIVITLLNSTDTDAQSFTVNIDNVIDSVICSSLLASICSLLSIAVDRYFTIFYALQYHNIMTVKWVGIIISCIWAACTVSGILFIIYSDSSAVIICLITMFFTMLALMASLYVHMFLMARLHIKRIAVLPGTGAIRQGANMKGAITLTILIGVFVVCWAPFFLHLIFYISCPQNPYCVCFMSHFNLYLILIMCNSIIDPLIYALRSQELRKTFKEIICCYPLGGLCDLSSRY
UniProt P32245, whole entry R305S: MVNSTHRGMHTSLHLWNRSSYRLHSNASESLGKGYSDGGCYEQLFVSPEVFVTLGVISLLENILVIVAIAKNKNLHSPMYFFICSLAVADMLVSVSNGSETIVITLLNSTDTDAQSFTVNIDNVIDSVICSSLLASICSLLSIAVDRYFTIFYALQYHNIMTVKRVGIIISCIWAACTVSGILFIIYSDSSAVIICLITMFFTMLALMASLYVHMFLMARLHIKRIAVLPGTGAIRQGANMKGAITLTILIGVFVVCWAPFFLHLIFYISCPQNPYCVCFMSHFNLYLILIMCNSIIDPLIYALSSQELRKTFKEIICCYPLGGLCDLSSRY
UniProt P32245, whole entry S36Y: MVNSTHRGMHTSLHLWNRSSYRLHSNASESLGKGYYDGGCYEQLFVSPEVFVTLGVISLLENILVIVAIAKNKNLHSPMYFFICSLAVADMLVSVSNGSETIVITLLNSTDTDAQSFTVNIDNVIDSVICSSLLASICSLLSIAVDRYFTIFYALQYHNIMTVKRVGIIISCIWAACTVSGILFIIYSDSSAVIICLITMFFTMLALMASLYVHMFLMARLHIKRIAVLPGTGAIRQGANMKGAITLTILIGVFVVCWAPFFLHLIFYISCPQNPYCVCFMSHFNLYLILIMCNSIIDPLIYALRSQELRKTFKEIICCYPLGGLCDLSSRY

How the values were obtained:
MC4R variants [1] = biological target: MC4R variants (Homo sapiens, UniProt P32245, F280L); conditions: MC4R F280L; ref Wang ZQ, Biochim Biophys Acta, 2011; cited from earlier work
MC4R variants [2] = biological target: MC4R variants (Homo sapiens, UniProt P32245, M79I); conditions: MC4R M79I; ref Wang ZQ, Biochim Biophys Acta, 2011; cited from earlier work
MC4R variants [3] = biological target: MC4R variants (Homo sapiens, UniProt P32245, R18H); conditions: MC4R R18H; ref Xiang Z, Biochemistry, 2010; cited from earlier work
MC4R variants [4] = biological target: MC4R variants (Homo sapiens, UniProt P32245, I317T); conditions: MC4R I317T; ref Xiang Z, Biochemistry, 2006; cited from earlier work
MC4R variants [5] = biological target: MC4R variants (Homo sapiens, UniProt P32245, V103I); conditions: MC4R V103I; ref Xiang Z, Biochemistry, 2006; cited from earlier work
MC4R variants [6] = biological target: MC4R variants (Homo sapiens, UniProt P32245, I316S); conditions: MC4R I316S; ref Xiang Z, Biochemistry, 2006; cited from earlier work
MC4R variants [7] = biological target: MC4R variants (Homo sapiens, UniProt P32245, A175T); conditions: MC4R A175T; ref Xiang Z, Biochemistry, 2006; cited from earlier work
MC4R variants [8] = biological target: MC4R variants (Homo sapiens, UniProt P32245, Y332H); conditions: MC4R Y332H; ref Wang ZQ, Biochim Biophys Acta, 2011; cited from earlier work
MC4R variants [9] = biological target: MC4R variants (Homo sapiens, UniProt P32245, A70T); conditions: MC4R A70T; COS-7 cell line; ref Hinney A, J Clin Endocrinol Metab, 2006; cited from earlier work
MC4R variants [10] = biological target: MC4R variants (Homo sapiens, UniProt P32245, R236H); conditions: MC4R R236H; COS-7 cell line; ref Hinney A, J Clin Endocrinol Metab, 2006; cited from earlier work
MC4R variants [11] = biological target: MC4R variants (Homo sapiens, UniProt P32245, F51L); conditions: MC4R F51L; ref Xiang Z, Biochemistry, 2010; cited from earlier work
MC4R variants [12] = biological target: MC4R variants (Homo sapiens, UniProt P32245, G252S); conditions: MC4R G252S; ref Xiang Z, Biochemistry, 2006; cited from earlier work
MC4R variants [13] = biological target: MC4R variants (Homo sapiens, UniProt P32245, A244E); conditions: MC4R A244E; ref Xiang Z, Biochemistry, 2006; cited from earlier work
MC4R variants [14] = biological target: MC4R variants (Homo sapiens, UniProt P32245, R7C); conditions: MC4R R7C; COS-7 cell line; ref Hinney A, J Clin Endocrinol Metab, 2006; cited from earlier work
MC4R variants [15] = biological target: MC4R variants (Homo sapiens, UniProt P32245, N97D); conditions: MC4R N97D; ref Xiang Z, Biochemistry, 2006; cited from earlier work
MC4R variants [16] = biological target: MC4R variants (Homo sapiens, UniProt P32245, A154D); conditions: MC4R A154D; ref Xiang Z, Biochemistry, 2010; cited from earlier work
MC4R variants [17] = biological target: MC4R variants (Homo sapiens, UniProt P32245, R165W); conditions: MC4R R165W; ref Xiang Z, Biochemistry, 2006; cited from earlier work
MC4R variants [18] = biological target: MC4R variants (Homo sapiens, UniProt P32245, R305S); conditions: MC4R R305S; ref Wang ZQ, Biochim Biophys Acta, 2011; cited from earlier work
MC4R variants [19] = biological target: MC4R variants (Homo sapiens, UniProt P32245, S36Y); conditions: MC4R S36Y; ref Xiang Z, Biochemistry, 2010; cited from earlier work
MC4R variants [20] = biological target: MC4R variants (Homo sapiens, UniProt P32245, P230L); conditions: MC4R P230L; ref Xiang Z, Biochemistry, 2006; cited from earlier work
MC4R variants [21] = biological target: MC4R variants (Homo sapiens, UniProt P32245, N62S); conditions: MC4R N62S; ref Xiang Z, Biochemistry, 2006; cited from earlier work
MC4R variants [22] = biological target: MC4R variants (Homo sapiens, UniProt P32245, S36T); conditions: MC4R S36T; COS-7 cell line; ref Hughes DA, Hum Genet, 2009; cited from earlier work
MC4R variants [23] = biological target: MC4R variants (Homo sapiens, UniProt P32245, T101A); conditions: MC4R T101A; ref Hinney A, J Clin Endocrinol Metab, 2006; cited from earlier work
MC4R variants [24] = biological target: MC4R variants (Homo sapiens, UniProt P32245, V50M); conditions: MC4R V50M; ref Xiang Z, Biochemistry, 2010; cited from earlier work
MC4R variants [25] = biological target: MC4R variants (Homo sapiens, UniProt P32245, T162R); conditions: MC4R T162R; COS-7 cell line; ref Ochoa MC, Clin Endocrinol, 2007; cited from earlier work
MC4R variants [26] = biological target: MC4R variants (Homo sapiens, UniProt P32245, R18L); conditions: MC4R R18L; ref Xiang Z, Biochemistry, 2010; cited from earlier work
MC4R variants [27] = biological target: MC4R variants (Homo sapiens, UniProt P32245, I226T); conditions: MC4R I226T; ref Xiang Z, Biochemistry, 2010; cited from earlier work
MC4R variants [28] = biological target: MC4R variants (Homo sapiens, UniProt P32245, G231S); conditions: MC4R G231S; ref Xiang Z, Biochemistry, 2010; cited from earlier work

## β-MSH
MC4R variants [1]
  cAMP EC50 (WT fold): 0.52 WT fold
MC4R variants [2]
  cAMP EC50 (WT fold): 87.65 WT fold
MC4R variants [3]
  cAMP EC50 - Ligand no.2: 0.33 WT fold
MC4R variants [4]
  cAMP EC50 (WT fold): 1.40 WT fold
MC4R variants [5]
  cAMP EC50 (WT fold): 0.14 WT fold
MC4R variants [6]
  cAMP EC50 (WT fold): 1.19 WT fold
MC4R variants [7]
  cAMP EC50 - Ligand no.2 (WT fold): 1.50 WT fold
MC4R variants [8]
  cAMP EC50 (WT fold): 0.78 WT fold
MC4R variants [9]
  cAMP EC50 (WT fold): 0.78 WT fold
MC4R variants [10]
  cAMP EC50 - Ligand no.2 (WT fold): 1.13 WT fold
MC4R variants [11]
  cAMP EC50 (WT fold): 25.70 WT fold
MC4R variants [12]
  cAMP EC50 - Ligand no.2 (WT fold): 1.26 WT fold
MC4R variants [13]
  cAMP EC50 - Ligand no.2 (WT fold): 2.21 WT fold
MC4R variants [14]
  cAMP EC50 - Ligand no.2: 3.00 WT fold
MC4R variants [15]
  cAMP EC50 (WT fold): 1571.43 WT fold
MC4R variants [16]
  cAMP EC50 - Ligand no.2 (WT fold): 2.23 WT fold
MC4R variants [17]
  cAMP EC50 - Ligand no.2 (WT fold): 18.83 WT fold
MC4R variants [18]
  cAMP EC50 (WT fold): 2.14 WT fold
MC4R variants [19]
  cAMP EC50 - Ligand no.2: 1.70 WT fold
MC4R variants [20]
  cAMP EC50 - Ligand no.2 (WT fold): 1.48 WT fold
MC4R variants [21]
  cAMP EC50 (WT fold): 350.00 WT fold
MC4R variants [22]
  cAMP EC50 - Ligand no.2: 3.20 WT fold
MC4R variants [23]
  cAMP EC50 (WT fold): 1.78 WT fold
MC4R variants [24]
  cAMP EC50 (WT fold): 1.80 WT fold
MC4R variants [25]
  cAMP EC50 - Ligand no.2 (WT fold): 1.10 WT fold
MC4R variants [26]
  cAMP EC50 - Ligand no.2: 0.70 WT fold
MC4R variants [27]
  cAMP EC50 - Ligand no.2 (WT fold): 1.77 WT fold
MC4R variants [28]
  cAMP EC50 - Ligand no.2 (WT fold): 1.37 WT fold
